By UniProt entry, the sequences of proteins in these tests, tags left out. Where a name states a change or a piece, a line headed by the entry shows the natural chain unless it says otherwise.
UniProt O14939: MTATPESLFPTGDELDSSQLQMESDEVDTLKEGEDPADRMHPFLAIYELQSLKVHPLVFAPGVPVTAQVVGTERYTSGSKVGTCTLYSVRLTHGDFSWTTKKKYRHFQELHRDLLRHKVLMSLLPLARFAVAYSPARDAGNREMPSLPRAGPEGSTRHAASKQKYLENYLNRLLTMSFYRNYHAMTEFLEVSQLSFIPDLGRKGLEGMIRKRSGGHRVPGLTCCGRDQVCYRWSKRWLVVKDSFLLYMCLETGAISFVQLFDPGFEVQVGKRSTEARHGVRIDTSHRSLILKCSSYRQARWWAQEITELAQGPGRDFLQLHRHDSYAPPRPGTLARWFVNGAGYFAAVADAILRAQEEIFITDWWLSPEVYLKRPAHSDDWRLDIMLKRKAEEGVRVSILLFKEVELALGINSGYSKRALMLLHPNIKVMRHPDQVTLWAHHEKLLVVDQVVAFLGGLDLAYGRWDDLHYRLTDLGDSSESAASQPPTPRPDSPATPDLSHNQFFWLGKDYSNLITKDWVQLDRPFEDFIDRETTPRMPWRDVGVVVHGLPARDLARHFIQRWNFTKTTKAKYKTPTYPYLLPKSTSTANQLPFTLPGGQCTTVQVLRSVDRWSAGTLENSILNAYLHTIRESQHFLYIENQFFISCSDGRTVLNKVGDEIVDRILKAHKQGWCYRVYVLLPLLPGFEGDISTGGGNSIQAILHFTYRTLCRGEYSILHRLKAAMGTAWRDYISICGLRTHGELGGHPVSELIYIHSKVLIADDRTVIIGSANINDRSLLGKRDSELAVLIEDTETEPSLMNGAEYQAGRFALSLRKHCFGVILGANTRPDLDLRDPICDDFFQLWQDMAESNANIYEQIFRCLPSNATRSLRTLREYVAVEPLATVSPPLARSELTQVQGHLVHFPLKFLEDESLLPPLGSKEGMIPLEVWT
UniProt Q13393: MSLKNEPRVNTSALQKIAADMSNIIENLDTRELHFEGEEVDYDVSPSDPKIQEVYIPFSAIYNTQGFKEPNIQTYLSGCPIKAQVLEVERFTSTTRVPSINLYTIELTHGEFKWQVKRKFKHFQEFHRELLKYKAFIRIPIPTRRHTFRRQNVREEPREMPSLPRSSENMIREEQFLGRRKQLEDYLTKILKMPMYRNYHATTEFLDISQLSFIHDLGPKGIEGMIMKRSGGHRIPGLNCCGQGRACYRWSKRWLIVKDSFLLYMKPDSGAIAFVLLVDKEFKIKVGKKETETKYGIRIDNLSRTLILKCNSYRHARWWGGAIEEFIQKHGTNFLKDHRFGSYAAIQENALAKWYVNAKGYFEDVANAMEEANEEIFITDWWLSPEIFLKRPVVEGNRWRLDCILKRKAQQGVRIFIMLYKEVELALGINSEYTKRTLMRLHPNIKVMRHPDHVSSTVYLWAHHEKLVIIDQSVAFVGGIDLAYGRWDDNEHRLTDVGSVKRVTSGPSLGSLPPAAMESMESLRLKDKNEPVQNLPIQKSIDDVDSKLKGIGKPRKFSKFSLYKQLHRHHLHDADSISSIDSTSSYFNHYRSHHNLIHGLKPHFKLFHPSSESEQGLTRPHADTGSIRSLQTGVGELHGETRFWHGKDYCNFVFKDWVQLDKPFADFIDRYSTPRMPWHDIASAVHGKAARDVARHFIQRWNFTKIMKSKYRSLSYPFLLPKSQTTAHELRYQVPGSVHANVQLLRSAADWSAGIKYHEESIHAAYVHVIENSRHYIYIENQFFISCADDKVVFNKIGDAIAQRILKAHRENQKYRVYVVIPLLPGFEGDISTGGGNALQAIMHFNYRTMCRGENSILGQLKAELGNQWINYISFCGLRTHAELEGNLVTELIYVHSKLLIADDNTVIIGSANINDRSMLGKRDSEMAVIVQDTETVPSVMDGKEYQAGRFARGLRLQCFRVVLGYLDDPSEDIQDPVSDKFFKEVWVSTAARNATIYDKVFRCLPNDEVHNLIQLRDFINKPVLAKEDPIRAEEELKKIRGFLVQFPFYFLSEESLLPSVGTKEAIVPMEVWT

According to US9127005B2, “Isoform selective phospholipase D inhibitors” (Vanderbilt University, priority 2009, dated 2015):

How the values were obtained:
PLD2 [1] = target: T1, PLD2 (Homo sapiens (Human), UniProt O14939); test: Cellular CRCs: PLD2 response in HEK293gfpPLD2 (293-PLD2) cells; format: cell-based
Source text: (§1) The screening method can comprise providing a cell selectively expressing a PLD isoenzyme, comprising a phosholipid, contacting the cell with a candidate agent in the presence of a primary alcohol, measuring the levels of phosphatidylalcohol in the cell, comparing the phosphatidylalcohol levels to a control, a decrease in phosphatidylalcohol levels compared to the control identifying an agent that inhibits the PLD isoenzyme.
In some aspects PLD activity in the cell is mediated predominately by PLD2. Thus, in some aspects, the cell stably overexpresses recombinant PLD2. For example, the cell can be a HEK293 cell stably overexpressing green florescent protein (GFP)-tagged PLD2.

PLD1 [2] = target: T2, PLD1 (Homo sapiens (Human), UniProt Q13393); test: Cellular CRCs: PLD1 response in Calu-1 cells; format: cell-based
Source text: as §1
In some aspects PLD activity in the cell is mediated predominately by PLD1. Thus, in some aspects, the cell is the human non-small-cell lung cancer (NSCLC) cell line Calu-1. In some aspects, the cell has been stimulated to activate PLD1 in the cell. For example, the cell can be stimulated with phorbol 12-myristate 13-acetate (PMA).

PLD2 [3] = target: T1, PLD2; test: Exogenous CRCs: in vitro PLD2 response; format: biochemical
Source text: (§2) The screening method can comprise providing a sample comprising a phosholipid and a PLD under conditions that allow the hydrolysis of the phospholipids to a phosphatidic acid, contacting the sample with a candidate agent, measuring enzymatic activity, comparing the enzymatic activity to a control, a decrease in enzymatic activity compared to the control identifying an agent that inhibits the PLD.
(§3) In some aspects, the PLD is a myr-Aff-1-stimulated mammalian human PLD1 or human PLD2.

PLD1 [4] = target: T2, PLD1; test: Exogenous CRCs: in vitro PLD1 response; format: biochemical
Source text: as §2, with “Generally, the” for “The”, “phosholipid, a primary alcohol,” for “phosholipid”, “phosphatidylalcohol,” for “phosphatidic acid,”
as §2, §3

[5] = Calu-1 cells (PLD1), read-out: Cellular CRCs Calu-1 IC50
[6] = exogenous (in vitro) PLD2, read-out: Exogenous CRCs PLD2 IC50

| Structure (SMILES) | IC50 (PLD2 [1]; HEK293 cells overexpressing GFP-tagged PLD2, read-out: Cellular CRCs 293-PLD2 IC50) | IC50 (PLD1 [2]; [5]) | IC50 (PLD2 [3]) | IC50 (PLD2 [1]) | IC50 (PLD1 [2]) | IC50 (PLD1 [4]) | Fold Selective (PLD2 [1]; cellular CRCs, selectivity for PLD2 (293-PLD2) over PLD1 (Calu-1)) | IC50 (PLD2 [3]; [6]) |
| --- | --- | --- | --- | --- | --- | --- | --- | --- |
| O=C(NCCN1CCC2(CC1)C(=O)NCC2c1ccc(F)cc1)c1cnc2ccccc2c1 (racemic) [CTH] | 145 nM | 2400 nM | 450 nM | – | – | – | – | – |
| O=C(NCCN1CCC2(CC1)C(O)=NC[C@H]2c1ccc(F)cc1)c1cnc2ccccc2c1 [NFT, (S)-N-(2-(4-(4-fluorophenyl)-1-oxo-2,8-diazaspiro[4.5]decan-8-yl)ethyl)quinoline-3-carboxamide bis(2,2,2-trifluoroacetate)] | – | – | – | 450 nM | 12000 nM | > 20000 nM | – | – |
| O=C(NCCN1CCC2(CC1)C(=O)NC[C@@H]2c1ccc(F)cc1)c1ccc(F)cc1.O=C(O)C(F)(F)F [NFW, (R)-4-fluoro-N-(2-(4-(4-fluorophenyl)-1-oxo-2,8-diazaspiro[4.5]decan-8-yl)ethyl)benzamide 2,2,2-trifluoroacetate] | – | – | – | 220 nM | 5500 nM | 11000 nM | – | – |
| C[C@@H](CN1CCC2(CC1)C(=O)NC[C@@H]2c1ccc(F)cc1)NC(=O)c1cnc2ccccc2c1 [P0L, N-((S)-1-((R)-4-(4-fluorophenyl)-1-oxo 2,8-diazaspiro[4.5]decan-8-yl)propan-2-yl)quinoline-3-carboxamide bis(2,2,2-trifluoroacetate)] | – | – | 725 nM | 115 nM | 25 nM | 100 nM | – | – |
| O=C(NCCN1CCC2(CC1)C(=O)NC[C@@H]2c1ccc(F)cc1)c1cnc2ccccc2c1 [P1P, (R)-N-(2-(4-(4-fluorophenyl)-1-oxo 2,8-diazaspiro[4.5]decan-8-yl)ethyl)quinoline-3-carboxamide bis(2,2,2-trifluoroacetate)] | – | – | – | 60 nM | 1350 nM | > 20000 nM | – | – |
| O=C(NCCN1CCC2(CC1)C(=O)NC[C@H]2c1ccc(F)cc1)c1ccc(F)cc1.O=C(O)C(F)(F)F [P2C, (S)-4-fluoro-N-(2-(4-(4-fluorophenyl)-1-oxo-2,8-diazaspiro[4.5]decan-8-yl)ethyl)benzamide 2,2,2-trifluoroacetate] | – | > 20000 nM | – | 3170 nM | – | > 20000 nM | ~10-fold? | > 20000 nM |
| C[C@@H](CN1CCC2(CC1)C(=O)NC[C@H]2c1ccc(F)cc1)NC(=O)c1cnc2ccccc2c1 [P2E, N-((S)-1-((S)-4-(4-fluorophenyl)-1-oxo-2,8-diazaspiro[4.5]decan-8-yl)propan-2-yl)quinoline-3-carboxamide bis(2,2,2-trifluoroacetate)] | – | – | – | 700 nM | 200 nM | – | – | 6750 nM |
